Test results: patent US20130158072A1, “KAPPA OPIOID RECEPTOR BINDING LIGANDS” (Research Triangle Institute, priority 2010, published 2013)

Sequences of proteins named here, by UniProt entry; tags and fusion partners are left off. A change or cut given only in a name is not applied to a line headed by its entry.
UniProt P41145: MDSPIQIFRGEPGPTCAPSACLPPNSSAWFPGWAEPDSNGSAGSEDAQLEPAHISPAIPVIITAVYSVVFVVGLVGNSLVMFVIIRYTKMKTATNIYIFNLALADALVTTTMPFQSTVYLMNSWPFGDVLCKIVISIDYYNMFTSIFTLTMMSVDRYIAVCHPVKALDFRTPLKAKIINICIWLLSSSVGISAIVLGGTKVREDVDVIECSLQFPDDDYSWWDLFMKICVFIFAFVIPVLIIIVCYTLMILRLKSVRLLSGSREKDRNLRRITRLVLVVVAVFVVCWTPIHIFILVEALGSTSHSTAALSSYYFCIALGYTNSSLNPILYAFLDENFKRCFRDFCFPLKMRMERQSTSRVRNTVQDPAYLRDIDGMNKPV
UniProt P35372, whole entry: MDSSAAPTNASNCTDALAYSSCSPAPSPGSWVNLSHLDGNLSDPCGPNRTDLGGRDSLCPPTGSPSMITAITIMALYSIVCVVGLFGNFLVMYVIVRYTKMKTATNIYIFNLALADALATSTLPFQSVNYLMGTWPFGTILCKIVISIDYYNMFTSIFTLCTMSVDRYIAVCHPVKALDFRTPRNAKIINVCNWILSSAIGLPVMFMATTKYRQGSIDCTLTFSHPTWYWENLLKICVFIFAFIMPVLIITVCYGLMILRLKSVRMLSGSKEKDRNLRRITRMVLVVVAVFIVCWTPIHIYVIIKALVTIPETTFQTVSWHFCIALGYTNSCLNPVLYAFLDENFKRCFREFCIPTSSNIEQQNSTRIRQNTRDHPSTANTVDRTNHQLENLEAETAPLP

Assays:
[1] = molecular target: T1, cloned human δ-opioid receptor (Homo sapiens, UniProt P41143); assay: Intrinsic activity in the [35S]GTPγS binding assay; type: biochemical; conditions: at 10 μM
T1 construct: expressed in transfected cells; host or cells: CHO cells

[2] = molecular target: T2, cloned human κ-opioid receptor (Homo sapiens, UniProt P41145); assay: Inhibition of U69,593-stimulated [35S]GTPγS binding
[3] = molecular target: T3, cloned human μ-opioid receptor (Homo sapiens, UniProt P35372); assay: Intrinsic activity in the [35S]GTPγS binding assay; type: biochemical; conditions: at 10 μM
T3 construct: expressed in transfected cells; host or cells: CHO cells

[4] = molecular target: T2, cloned human κ-opioid receptor; assay: Intrinsic activity in the [35S]GTPγS binding assay; type: biochemical; design: expressed in transfected cells; host or cells: CHO cells; conditions: at 10 μM

SMILES: Oc1ccc2c3c1O[C@H]1c4[nH]c5c(c4C[C@@]4(O)[C@@H](C2)N(CC2CC2)CC[C@]314)C[C@@]1(O)[C@H]2Cc3ccc(O)c4c3[C@@]1(CCN2CC1CC1)[C@H]5O4 [Compound 1, nor-BNI, reference compound]
- intrinsic activity at the δ opioid receptor [1]: none of the compounds displayed measurable intrinsic activity
- κ, U69,593 Ke ([2]; antagonism of U69,593-stimulated [35S]GTPγS binding, CHO cells, means ± SE, at least three experiments): 0.05 ± 0.02 nM
- δ/κ ([2]; ratio of Ke values, κ selectivity relative to δ): 580
- μ/κ ([2]; ratio of Ke values, κ selectivity relative to μ): 520
- intrinsic activity at the μ opioid receptor [3]: none of the compounds displayed measurable intrinsic activity
- intrinsic activity at the κ opioid receptor [4]: none of the compounds displayed measurable intrinsic activity
